One substance from US10548994B1, “Control of chronic neuropathic pain and allodynia” (STC.UNM, priority 2013, dated 2020) can be followed below.

In this data set the test system is interleukin-12 (IL-12). To be noted: in vivo.

Take poly(lactic-co-glycolic acid) [PLGA]: the “elevations in pro-inflammatory cytokine interleukin-12 (IL-12)” value was “does not lead to elevations”.
